Chains of the proteins cited; added tags and fusions are not shown. Residues count along the entry.
UniProt P07711, 114-333 limits assumed: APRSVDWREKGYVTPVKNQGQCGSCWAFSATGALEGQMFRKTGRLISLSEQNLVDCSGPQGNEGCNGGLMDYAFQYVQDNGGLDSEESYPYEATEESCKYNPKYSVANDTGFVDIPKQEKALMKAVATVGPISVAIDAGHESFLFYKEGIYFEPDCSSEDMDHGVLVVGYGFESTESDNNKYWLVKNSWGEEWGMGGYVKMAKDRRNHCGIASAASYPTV

According to patent US20240150396A1 (The Texas A&M University System, priority 2021, published 2024):

Target: human cathepsin L (Homo sapiens (Human), UniProt P07711)
Assay: Human cathepsin L inhibition, Z-FR-AMC assay
Type: biochemical
Details: read-out: Ki* hCatL; pH 5.5, 25° C.
Experimental: Recombinant human cathepsins B and L were purchased from Millipore Sigma and used without further treatment. The solid proteins were dissolved into a solution of 50 mM sodium acetate (pH 5.5), 1 mM EDTA, 1 mM CHAPS, 10% (v/v) DMSO, and 5 mM DTT to final concentrations of […] in 20-mL aliquots, and stored at −80° C. until needed. These samples were then diluted into the same buffer to concentrations of −100 nM, and these dilutions were stored at 4° C. and used daily until depletion.
For assays of cathepsin L and B, inhibitors were evaluated in 0.25-mL reaction mixtures containing a buffer of sodium acetate (pH 5.5), 1 mM CHAPS, 1 mM Na2EDTA, and 5 mM DTT at 25° C. The fluorogenic substrate Cbz-Phe-Arg-7-amino-4-methyl-coumarin (Z-FR-AMC) was dissolved in 100% DMSO, as were all inhibitors, and aliquots of both substrates and inhibitors were added to reaction mixtures to final concentrations of DMSO of 10% (v/v). […] Formation of the fluorescent product AMC was monitored over 30-60-minute time courses for reaction mixtures in 96-well black microplates (Corning Costar®). Rates of peptidolysis of the dipeptide-AMC substrate(s) were measured on either a SpectraMax M5 (Molecular Devices) or a Synergy HTX (Biotek, Wisnooki, VT) microplate reader with λex=360 nm, λem=460 nm in ≥8-sec intervals. Control samples excluded substrate. The measured relative fluorescence units (RFUs) of generated AMC were converted to reaction rates of μM/s by use of a standard curve of known AMC concentrations obtained for both plate readers.

Row | SMILES | Ki
1 | CN1CCN(C(=O)N[C@@H](Cc2ccccc2)C(=O)N[C@H](C=O)Cc2ccc[nH]c2=O)CC1 | 2 nM
2 | CC(=O)N[C@H](C(=O)N[C@@H](CC1CCCCC1)C(=O)N[C@H](C=O)Cc1ccc[nH]c1=O)C(C)C | 140 nM
3 | CC(C)[C@H](NC(=O)OCc1ccccc1)C(=O)N[C@@H](CC1CCCCC1)C(=O)N[C@H](C=O)Cc1ccc[nH]c1=O | 59 nM and 50 nM

Where “and” joins values, the source holds several entries; their conditions need not be identical. Equal values may be shown once.
